Earlier results as cited in patent publication US5641744A, “Treatment of diabetes mellitus” (Amylin Pharmaceuticals, Inc., priority 1987, dated 1997).

What was measured:
[1] = administered to rats
islet B cells = settings: a number of model systems

Substance: calcitonin gene related peptide (ACDTATCVTHRLAGLLSRSGGVVKNNFVPTNVGSKAF; Calcitonin gene-related peptide 1; UniProt P06881 83-119, looked up) [CGRP, peptide structurally similar to amylin; human CGRP-2 has 46% identity]
- effects on blood pressure and blood catecholamine levels [1]: significant effects
- rate of glucose induced insulin secretion (islet B cells): modulate
